The record followed here is US5449676A, “Pyridazines” (priority 1991, dated 1995).

By UniProt entry, the sequences of proteins in these tests, tags left out. Where a name states a change or a piece, a line headed by the entry shows the natural chain unless it says otherwise.
UniProt Q14432: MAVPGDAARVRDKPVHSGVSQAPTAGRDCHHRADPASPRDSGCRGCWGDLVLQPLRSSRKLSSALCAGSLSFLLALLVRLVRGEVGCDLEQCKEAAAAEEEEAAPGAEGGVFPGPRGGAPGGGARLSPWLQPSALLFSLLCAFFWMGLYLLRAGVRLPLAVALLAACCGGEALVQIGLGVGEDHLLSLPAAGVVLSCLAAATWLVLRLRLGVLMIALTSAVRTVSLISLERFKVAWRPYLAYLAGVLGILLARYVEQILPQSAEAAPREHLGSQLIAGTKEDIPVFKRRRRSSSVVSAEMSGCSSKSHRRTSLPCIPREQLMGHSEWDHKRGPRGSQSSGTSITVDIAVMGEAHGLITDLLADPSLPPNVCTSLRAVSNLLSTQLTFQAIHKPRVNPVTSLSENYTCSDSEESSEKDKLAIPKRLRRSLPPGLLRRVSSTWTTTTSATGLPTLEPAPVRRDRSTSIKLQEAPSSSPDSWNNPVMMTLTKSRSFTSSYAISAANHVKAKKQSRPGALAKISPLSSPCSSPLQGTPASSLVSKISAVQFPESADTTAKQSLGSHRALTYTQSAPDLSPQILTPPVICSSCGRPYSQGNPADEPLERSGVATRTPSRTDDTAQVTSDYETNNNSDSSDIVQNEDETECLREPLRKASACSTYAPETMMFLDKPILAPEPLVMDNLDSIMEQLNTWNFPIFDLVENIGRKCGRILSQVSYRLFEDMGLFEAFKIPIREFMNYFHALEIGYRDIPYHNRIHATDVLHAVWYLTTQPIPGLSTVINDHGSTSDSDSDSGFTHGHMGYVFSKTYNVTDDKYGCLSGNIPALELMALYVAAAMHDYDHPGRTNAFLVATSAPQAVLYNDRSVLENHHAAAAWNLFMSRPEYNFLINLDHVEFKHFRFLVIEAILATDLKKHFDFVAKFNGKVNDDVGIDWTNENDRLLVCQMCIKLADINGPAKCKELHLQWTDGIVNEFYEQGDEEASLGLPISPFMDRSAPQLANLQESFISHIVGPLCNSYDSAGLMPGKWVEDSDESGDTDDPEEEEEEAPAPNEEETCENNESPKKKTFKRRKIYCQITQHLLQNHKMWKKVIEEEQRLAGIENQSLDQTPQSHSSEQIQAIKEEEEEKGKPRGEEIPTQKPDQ

In the assay the target is T1, PDE III (Homo sapiens, UniProt Q14432).
T1 construct: PDE III isolated from human platelets; from tissue; host or cells: human platelets
In words: inhibition of PDE III isolated from human platelets. In kind it is biochemical. The text has this: The specific inhibition of phosphodiesterase IV (PDE IV=high-affinity cAMP-PDE which cannot be inhibited by cGMP, rolipram-sensitive) is regarded as particularly indicative of an expected bronchospasmolytic and/or antiinflammatory effect. The specificity of the inhibition is moreover described by the ratio [IC50 ]PDE-III /[IC50 ]PDE-IV (PDE III=high-affinity cAMP-PDE which can be inhibited by cGMP) [H. Hidaka et al., Adv. Cycl. Nucl. Res. 13, 145 (1984); TiPS 5, 237 (1984); R. Weishaar et al., J. Med. Chem. 28, (1985); S. A. Harrison et al., Molec. Pharmac. 29, 506 (1986); J. Klein-Tebbe et al., Allergologie 12, 12 (1989); C. Schudt et al., Allergologie 12, 12, (1989); C. Schudt et al., Agents and Action 1991 in press; C. D. Nicholson et al., TiPS 12, (1), 19 (1991)].
For this reason, the PDE inhibition by the compounds according to the invention was determined on a PDE III isolated from human platelets and on PDE IV isolated from human polymorphonuclear neutrophilic cells (PMNs) and from the dog trachea. Phosphodiesterases III and IV are isolated by chromatography as described by Polson et al., Biochem. Pharmacol. 31, 3403-3406 (1982).
The substances are dissolved and diluted further in DMSO. 2.1 μl samples from a series of solutions diluted up to 100 fold are mixed with 212 μl of reaction mixture. […]

What is called IC50 is the point on the concentration scale where inhibition reaches its midpoint. A low value points to higher potency.

Turning to `Cn1c(=O)c2[nH]cnc2n(C)c1=O` [Theophylline, reference compound], the IC50 is 151 µM.
